Experimental data published in ChEMBL document CHEMBL1155335, “Studies towards topical selective beta2-adrenoceptor agonists with a long duration of action” (Bioorg Med Chem Lett, 2009).

Tested on: Cavia porcellus
Test: Bronchoprotective activity in intratracheally dosed guinea pig assessed as inhibition of acetylcholine-induced increase in pulmonary resistance after 5 hrs
Type: functional, organism-based

## COc1ccc(CC(C)NCC(O)c2ccc(O)c(NC=O)c2)cc1 (stereo unspecified)
  Activity: Dose-dependent effect
